This assay has as its target TBK1 (Homo sapiens (Human), UniProt Q9UHD2). Put plainly: TBK1 low ATP kinase assay (in vitro assay 1). In kind it is biochemical.

By UniProt entry, the sequences of proteins in these tests, tags left out. Where a name states a change or a piece, a line headed by the entry shows the natural chain unless it says otherwise.
UniProt Q9UHD2: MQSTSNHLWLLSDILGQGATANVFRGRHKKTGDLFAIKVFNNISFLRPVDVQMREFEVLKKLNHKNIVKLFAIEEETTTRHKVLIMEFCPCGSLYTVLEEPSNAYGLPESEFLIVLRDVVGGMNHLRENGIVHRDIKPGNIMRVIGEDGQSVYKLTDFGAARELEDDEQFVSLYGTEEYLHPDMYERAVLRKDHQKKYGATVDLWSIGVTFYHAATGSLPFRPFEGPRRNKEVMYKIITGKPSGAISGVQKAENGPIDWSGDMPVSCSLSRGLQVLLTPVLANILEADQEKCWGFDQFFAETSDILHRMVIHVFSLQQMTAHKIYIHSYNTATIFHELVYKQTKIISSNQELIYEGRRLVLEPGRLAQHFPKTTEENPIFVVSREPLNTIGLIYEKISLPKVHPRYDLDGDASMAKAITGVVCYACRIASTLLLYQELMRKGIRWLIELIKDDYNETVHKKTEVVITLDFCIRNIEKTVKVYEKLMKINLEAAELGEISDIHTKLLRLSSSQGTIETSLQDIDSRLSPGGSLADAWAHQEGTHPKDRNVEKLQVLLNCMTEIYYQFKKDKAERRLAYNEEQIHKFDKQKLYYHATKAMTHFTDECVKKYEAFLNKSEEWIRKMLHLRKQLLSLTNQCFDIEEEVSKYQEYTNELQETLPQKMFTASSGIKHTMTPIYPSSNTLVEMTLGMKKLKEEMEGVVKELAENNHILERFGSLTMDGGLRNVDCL

In the case of `Cc1cc(-c2ccc3nc(Nc4cc(CN5CCN(C(=O)CC(F)(F)F)CC5)ccn4)[nH]c3c2)ncn1` [Example 30.01.01, 3,3,3-trifluoro-1-{4-[(2-{[6-(6-methylpyrimidin-4-yl)-1H-benzimidazol-2-yl]amino}pyridin-4-yl)methyl]piperazin-1-yl}propan-1-one], the IC50 (commonly the concentration that gives 50% inhibition) worked out at 15 nM.

The values above are taken from patent US10894784B2, “Heteroarylbenzimidazole compounds” (BAYER PHARMA AKTIENGESELLSCHAFT, priority 2015, dated 2021).
